# Experimental data taken from patent US20230263786A1, “MODULATION OF DRUG-DRUG INTERACTIONS OF VADADUSTAT” (Akebia Therapeutics, Inc., priority 2020, published 2023).
# Amino acid sequences for entries named in this document (tags omitted). A change or cut given only in a name is not applied to a line headed by its entry.
# UniProt Q9GZT9: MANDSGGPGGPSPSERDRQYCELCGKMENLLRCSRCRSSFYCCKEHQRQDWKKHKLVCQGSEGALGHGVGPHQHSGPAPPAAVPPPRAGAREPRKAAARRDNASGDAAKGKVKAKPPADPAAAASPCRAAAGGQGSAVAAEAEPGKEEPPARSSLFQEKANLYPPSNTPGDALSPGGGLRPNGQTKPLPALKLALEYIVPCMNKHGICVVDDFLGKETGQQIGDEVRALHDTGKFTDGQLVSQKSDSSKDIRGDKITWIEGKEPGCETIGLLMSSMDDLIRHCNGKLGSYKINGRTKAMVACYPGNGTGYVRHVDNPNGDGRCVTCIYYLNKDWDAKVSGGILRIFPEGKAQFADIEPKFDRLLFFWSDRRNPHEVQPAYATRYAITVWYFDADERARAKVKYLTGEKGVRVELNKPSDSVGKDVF
# Several values for one entry are separate records, joined by “and”; a condition that tells them apart may be missing. Equal entries are not always repeated.
# Columns and labels:
# [1] = Phase I ferrous sulfate tablet interaction study;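 note: crossover in fasted human subjects with four-day washout between periods, plasma glucuronide metabolite pharmacokinetics, ratios computed as metabolite over parent for AUC and Cmax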
# [2] = Phase 1 oral iron interaction study, Cohort 2 (before meal): sucroferric oxyhydroxide; assay type: in vivo, human
# Procedure: (§1) A phase 1, single-dose, open-label, randomized, crossover study was conducted in 61 healthy adult male subjects to evaluate the pharmacokinetics and safety of Compound 1 when Compound 1 and oral iron or iron-containing phosphate binders were co-administered.
# (§2) Cohort 2 and Cohort 3 were confined to the study site for 7 nights and 8 days. • Post-administration tests: performed 3 days after administration of the last dose of the study drug.
# (§3) Pharmacokinetics. […] For each evaluation period, the plasma concentration of unchanged Compound 1 will be assayed, and the following parameters calculated by non-compartmental analysis: AUC0-inf, Cmax, AUC0-last, Kel, and t1/2.
# In Cohort 2, 20 subjects were further randomized into 2 groups (10 subjects per group) and the evaluation period was divided into 2 periods during the study:
# (§4) Administration of vadadustat tablets alone: after fasting for at least 10 hours and immediately before eating breakfast (5 minutes before starting the meal), 1 vadadustat tablet (150 mg) will be taken orally with 200 mL of water, then breakfast would be eaten over a period of 10 minutes (extra water may be drunk if more is needed when taking the tablet, and the extra volume would be recorded). After breakfast, subjects would fast until the end of the collection of blood samples at 4 hours after administration of the study drug. Subjects would eat lunch over a period of 20 minutes after blood samples were collected at 4 hours after administration of the study drug. After lunch, subjects would fast until dinner, when they would eat dinner over a period of 20 minutes at 10 hours after administration of the study drug. Subjects would fast from dinner until breakfast the next morning.
# Administration of vadadustat tablets and sucroferric oxyhydroxide: after fasting for at least 10 hours and immediately before eating breakfast (5 minutes before starting the meal), subjects would chew and swallow 2 tablets of sucroferric oxyhydroxide (containing 1000 mg of iron), then 1 vadadustat tablet (150 mg) would be taken orally with 200 mL of water, then breakfast would be eaten over a period of 10 minutes (extra water may be drunk if more is needed when taking the tablets, and the extra volume would be recorded). After breakfast, subjects would fast until the end of the collection of blood samples at 4 hours after administration of the study drug. After blood samples were collected at 4 hours after administration of the study drug and immediately before lunch, subjects would chew and swallow 2 tablets of sucroferric oxyhydroxide (containing 1000 mg of iron), then eat lunch over a period of 20 minutes. After lunch, subjects will fast until dinner, and immediately before dinner at 10 hours after administration of the study drug, chew and swallow 2 tablets of sucroferric oxyhydroxide (containing 1000 mg of iron), then eat dinner over a period of 20 minutes. Subjects would fast from dinner until breakfast the next morning.
# [3] = Phase 1 oral iron interaction study, Cohort 3 (fasting): dried ferrous sulfate slow release; assay type: in vivo, human
# Procedure: as §1, §2, §3
# In Cohort 3, 20 subjects were further randomized into 2 groups (10 subjects per group) and the evaluation period was divided into 2 periods during the study:
# as §4, with “hours,” for “hours and immediately before eating breakfast (5 minutes before starting the meal),”, “would” for “will”, “water” for “water, then breakfast would be eaten over a period of 10 minutes”, “Subjects” for “After breakfast, subjects”
# as §4, with “and dried ferrous sulfate:” for “alone:”, “hours,” for “hours and immediately before eating breakfast (5 minutes before starting the meal),”, “and 2 tablets of dried ferrous sulfate (containing 210 mg of iron) would” for “will”, “water” for “water, then breakfast would be eaten over a period of 10 minutes”, “tablets,” for “tablet,”, “Subjects” for “After breakfast, subjects”
# [4] = Phase 1 oral iron interaction study, Cohort 1 (after meal): sodium ferrous citrate, ferric citrate hydrate; assay type: in vivo, human; conditions: for AUC0-∞, Ratio of geometric mean value Combined/alone / Cmax, Ratio of geometric mean value Combined/alone: Compound 1 150 mg, simultaneous
# Procedure: as §1, §2, §3
# In Cohort 1, 21 subjects were further randomized into 3 groups (7 subjects per group) and the evaluation period was divided into 3 periods during the study:
# as §4, with “hours, subjects would eat breakfast over a period of 10 minutes, then” for “hours and”, “after finishing the meal” for “before eating breakfast”, “after finishing” for “before starting”, “would” for “will”, “water” for “water, then breakfast would be eaten over a period of 10 minutes”
# Administration of vadadustat tablets and sodium ferrous citrate: after fasting for at least 10 hours, subjects would eat breakfast over a period of 10 minutes, then immediately after finishing the meal (5 minutes after finishing the meal), 1 vadadustat tablet (150 mg) and 4 tablets of sodium ferrous citrate (containing 200 mg of iron) would be taken orally with 200 mL of water (extra water may be drunk if more is needed when taking the tablets, and the extra volume would be recorded). After breakfast, subjects would fast until the end of the collection of blood samples at 4 hours after administration of the study drug. Subjects would eat lunch over a period of 20 minutes after blood samples were collected at 4 hours after administration of the study drug. After lunch, subjects would fast until dinner, when they would eat dinner over a period of 20 minutes at 10 hours after administration of the study drug. Subjects would fast from dinner until breakfast the next morning.
# Administration of vadadustat tablets and ferric citrate hydrate: after fasting for at least 10 hours, subjects would eat breakfast over a period of 10 minutes, then immediately after finishing the meal (5 minutes after finishing the meal), 1 vadadustat tablet (150 mg) and 8 tablets of ferric citrate hydrate (containing 2000 mg of ferric citrate) would be taken orally with 200 mL of water (extra water may be drunk if more is needed when taking the tablets, and the extra volume will be recorded). After breakfast, subjects would fast until the end of the collection of blood samples at 4 hours after administration of the study drug. After collection of blood samples at 4 hours after administration of the study drug, subjects would eat lunch over a period of 20 minutes, then immediately after finishing the meal, 8 tablets of ferric citrate hydrate (containing 2000 mg of ferric citrate) would be taken orally with 200 mL of water (extra water may be drunk if more is needed when taking the tablet, and the extra volume would be recorded). […]
# [5] = Phase I calcium acetate interaction study; assay type: in vivo, human; conditions: vadadustat administered concurrently with calcium acetate
# Procedure: A phase I, open-label, fixed-sequence study was conducted in healthy adult subjects to assess the effect of 1) a single oral dose of calcium acetate on the pharmacokinetics of a single oral dose of vadadustat.
# The study included screening (28 days maximum), 9-day treatment period, and a 14-day follow-up period post last dose.
# Pharmacokinetics. A predose PK blood sample was collected on Day 1. […] The 48-hour postdose sample was collected before vadadustat administration on Days 3, 5, and 7. The following parameters were calculated and analyzed: AUC0-∞, AUC0-last, Cmax, Tmax, Kel, CIB, Vc/F, and t1/2.
# Subjects were dosed approximately at the same designated time on each dosing day, where applicable. Study drugs were administered with approximately 8 ounces (240 mL) of water at room temperature in a seated position. Subjects were instructed to drink the full 8 ounces of water, and not to chew or break the tablets/gelcaps. […]
# [6] = Influence of meal on pharmacokinetics, single 450 mg dose; assay type: in vivo, human; conditions: healthy adult males
# Procedure: The median tmax of this drug was prolonged by postprandial administration for about 1.5 hours as compared with fasting.
# human PHD2 = human PHD2 (Homo sapiens, UniProt Q9GZT9); assay: biochemical
# [7] = Phase I single-dose study, moderate hepatic impairment versus normal hepatic function; assay type: in vivo, human; conditions: moderate hepatic impairment versus normal liver function
# Procedure: A phase I, open-label, parallel-group, single-dose study was conducted to evaluate the pharmacokinetics (PK) of 450 mg vadadustat administered in adults with moderate hepatic impairment (Child-Pugh Class B) versus those with normal hepatic function. The pharmacokinetic (pK) parameters of Compound 1 were characterized. Safety and tolerability were assessed throughout the study.
# Inclusion criteria: participants were male and female adults between 18 and 70 years of age, with either normal hepatic function or moderate hepatic impairment based on the Child-Pugh classification (Child-Pugh Class B [score 7-9]). Moderate hepatic impairment was defined by the presence and severity of elevated bilirubin levels, decreased serum albumin levels, elevated international normalized ratios >2.20, ascites, and hepatic encephalopathy.
# Pharmacokinetics. Blood samples for the evaluation of the PK of Compound 1 and its metabolites were collected predose and at 0.5, 1, 1.5, 2, 3, 4, 6, 9, 12, 18, 24, 36, 48, 60, and 72 hours postdose. Urine was collected predose and at 0, 4, 8, 12, 24, 48, and 72 hours post dose to measure Compound 1 excretion and its O-glucuronide metabolite. […] PK parameters Ae0-72, Fe %0-72, and CL, were estimated from the urine concentration-time profiles.
# 8 subjects with hepatic impairment and 8 matched subjects with normal hepatic function were enrolled in the study. All subjects received a single oral 450-mg dose of vadadustat on Day 1 and were required to fast for at least 10 hours before dosing and for 4 hours after dosing.
# [8] = Compound 1 + Iron/Compound 1, ferrous sulfate 65 mg iron
# [9] = Sucroferric oxyhydroxide chewable tablets 1000 mg iron, Compound 1 150 mg, simultaneous
# [10] = with sucroferric oxyhydroxide versus Compound 1 alone
# [11] = Iron sulfate slow release tablet 210 mg iron, Compound 1 150 mg, simultaneous
# [12] = with dried ferrous sulfate (slow release) versus Compound 1 alone
# [13] = Citric acid ferric hydrate tablet 2000 mg as ferric citrate
# [14] = Sodium ferrous citrate preparation 200 mg iron
# [15] = with ferric citrate hydrate versus Compound 1 alone
# [16] = with sodium ferrous citrate versus Compound 1 alone
smiles,measurement,setting,value
"O=C(O)CNC(=O)c1ncc(-c2cccc(Cl)c2)cc1O [Compound 1, {[5-(3-chlorophenyl)-3-hydroxypyridine-2-carbonyl]amino}acetic acid]","AUC(0-inf), Geometric Mean Ratio",[1]; [8],46.3%
same,"AUC(0-t), Geometric Mean Ratio",[1]; [8],46.0%
same,"Cmax, Geometric Mean Ratio",[1]; [8],49.3%
same,"AUC0-∞, Ratio of geometric mean value Combined/alone",[1]; in vivo,46.0%
same,"Cmax, Ratio of geometric mean value Combined/alone",[1]; in vivo,49.3%
same,"AUC0-∞, Ratio of geometric mean value Combined/alone",[2]; [9],45.99%
same,"Cmax, Ratio of geometric mean value Combined/alone",[2]; [9],57.95%
same,"AUC(0-inf), Geometric Mean Ratio",[2]; [10],46% and 45.99%
same,"AUC(0-last), Geometric Mean Ratio",[2]; [10],46.56%
same,"Cmax, Geometric Mean Ratio",[2]; [10],58% and 57.95%
same,"Kel, Geometric Mean Ratio",[2]; [10],119.41%
same,"t1/2, Geometric Mean Ratio",[2]; [10],83.74%
same,"AUC0-∞, Ratio of geometric mean value Combined/alone",[3]; [11],10.31%
same,"Cmax, Ratio of geometric mean value Combined/alone",[3]; [11],8.09%
same,"AUC(0-last), Geometric Mean Ratio",[3]; [12],9.72%
same,"Kel, Geometric Mean Ratio",[3]; [12],107.72%
same,"t1/2, Geometric Mean Ratio",[3]; [12],92.83%
same,"AUC0-∞, Ratio of geometric mean value Combined/alone",[4]; [13],31.10%
same,"Cmax, Ratio of geometric mean value Combined/alone",[4]; [13],36.25%
same,"AUC0-∞, Ratio of geometric mean value Combined/alone",[4]; [14],44.79%
same,"Cmax, Ratio of geometric mean value Combined/alone",[4]; [14],48.66%
same,"AUC(0-last), Geometric Mean Ratio",[4]; [15],31.39%
same,"Kel, Geometric Mean Ratio",[4]; [15],125.00%
same,"t1/2, Geometric Mean Ratio",[4]; [15],80.00%
same,"AUC(0-last), Geometric Mean Ratio",[4]; [16],44.76%
same,"Kel, Geometric Mean Ratio",[4]; [16],99.76%
same,"t1/2, Geometric Mean Ratio",[4]; [16],100.25%
same,geometric LS mean ratio of AUC0-∞ to vadadustat alone,[5],45.00%
same,"Ratio of the geometric mean of AUC0-inf, fed versus fasted",[6],94%
same,"Ratio of the geometric mean of Cmax, fed versus fasted",[6],73%
same,IC50,human PHD2,11.8 nM
same,"AUC0-inf, Geometric LSM Ratio (T/R), Total Compound 1",[7],106%
same,"AUC0-inf, Geometric LSM Ratio (T/R), Unbound Compound 1",[7],124%
same,"AUC0-last, Geometric LSM Ratio (T/R), Total Compound 1",[7],105%
same,"AUC0-last, Geometric LSM Ratio (T/R), Unbound Compound 1",[7],124%
same,"Cmax, Geometric LSM Ratio (T/R), Total Compound 1",[7],102%
same,"Cmax, Geometric LSM Ratio (T/R), Unbound Compound 1",[7],120%
same,GM Ratio AUC0-inf,[7]; total,1.06
same,GM Ratio AUC0-last,[7]; total,1.05
same,GM Ratio Cmax,[7]; total,1.02
